Values of other authors, collected in patent US6887842B1, “Modulating a pharmacokinetic property of a drug by administering a bifunctional molecule containing the drug” (The Board of Trustees of the Leland Stanford Junior …, priority 1999, dated 2005).

Chains of the proteins cited; added tags and fusions are not shown. Residues count along the entry.
UniProt P02768, 25-609, species assumed: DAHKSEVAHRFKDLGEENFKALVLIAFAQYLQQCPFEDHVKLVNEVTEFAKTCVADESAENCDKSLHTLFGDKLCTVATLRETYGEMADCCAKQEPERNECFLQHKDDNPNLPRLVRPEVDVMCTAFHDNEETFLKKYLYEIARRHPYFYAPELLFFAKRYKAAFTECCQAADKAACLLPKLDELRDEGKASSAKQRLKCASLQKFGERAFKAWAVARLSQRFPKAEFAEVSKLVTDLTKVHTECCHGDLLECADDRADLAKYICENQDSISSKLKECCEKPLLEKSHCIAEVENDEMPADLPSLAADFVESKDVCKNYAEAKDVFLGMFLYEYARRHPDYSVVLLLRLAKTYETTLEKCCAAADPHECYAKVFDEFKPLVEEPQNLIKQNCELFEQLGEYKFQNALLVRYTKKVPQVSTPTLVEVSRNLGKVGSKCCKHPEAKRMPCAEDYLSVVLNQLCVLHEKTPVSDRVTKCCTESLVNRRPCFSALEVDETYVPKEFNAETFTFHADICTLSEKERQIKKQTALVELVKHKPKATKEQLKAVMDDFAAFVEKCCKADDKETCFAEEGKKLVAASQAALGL

Molecular target: albumin (Homo sapiens, UniProt P02768)
Conditions: read-out: affinity for albumin

Kd: 5 µM
SMILES: CN(C)CCCN1c2ccccc2Sc2ccc(Cl)cc21 [chlorpromazine]
